Test system: pre-delta cells
Assay: Differentiation of pre-delta cells to SCδ cells (stage 6), flow cytometry and immunohistochemistry
Type: cell-based, human
Details: stage 6, flow cytometry

**Q.** How did the “SST^+GCG^−INS^+ cells” value turn out when `C=C[C@@]1(C)CC(=O)[C@]2(O)[C@@]3(C)[C@@H](O)CCC(C)(C)[C@@H]3[C@H](O)[C@H](OC(C)=O)[C@@]2(C)O1` [forskolin, [(3R,4aR,5S,6S,6aS,10S,10aR,10bS)-3-ethenyl-6,10,10b-trihydroxy-3,4a,7,7,10a-pentamethyl-1-oxo-5,6,6a,8,9,10-hexahydro-2H-benzo[f]chromen-5-yl]acetate] was run?
**A.** 26.76±1.33%

**Q.** What about the “total glucagon positive cells” value of the same compound?
**A.** 19.92±2.29%

**Q.** And the “total insulin positive cells” value?
**A.** 47.28±1.94%

**Q.** And the “total somatostatin positive cells” value?
**A.** 58.27±1.71%

— patent US20260218132A1, “METHODS AND MATERIALS FOR GENERATING STEM CELL-DERIVED ENDOCRINE CELL TYPES” (Mayo Foundation for Medical Education and Research, priority 2023, published 2026)
